Test results reported in patent US20260077065A1, “Compositions and Methods for Assessing Kinase Activity” (The Board of Trustees of the Leland Stanford Junior …, priority 2022, published 2026).

Tested on: Akt
Conditions: 3 hours after administration; CFz

Compound: CC(C)NC[C@@H](C(=O)N1CCN(c2ncnc3c2[C@H](C)C[C@H]3O)CC1)c1ccc(Cl)cc1 [GDC-0068, ipatasertib]
- higher response of Akt oKiMBI mice compared to oKiMBImut mice: ~130%
